Measurements: US20240139185A1, “COMPOUNDS THAT PARTICIPATE IN COOPERATIVE BINDING AND USES THEREOF” (Revolution Medicines, Inc., priority 2018, published 2024)

How the values were obtained:
cyclophilin A (CYPA) = cyclophilin A (CYPA) (Homo sapiens, UniProt P62937); assay: CYPA-compound binary complex formation by SPR; details: read-out: CYPA Binding Affinity
Experimental: In order to determine the affinity of compounds of the invention for cyclophilin A (CYPA), we employed surface plasmon resonance binding analysis using the following reagents, instruments and protocol as supplied by the instrument manufacturer.
Reagents and Instrument • 1. Instrument: Biacore S200 (GE Healthcare Life Sciences) • 2. Running buffer: 1×HBS-P+ (1×HBS supplemented with 0.05% Tween20), pH7.4, and 2% DMSO. • 3. Ligand: CypA-Avi • 4. Analyte: Serial dilution of WDB compounds from 50 μM to 0 μM, 2-fold dilution, 10 points (10 mM stock concentration). • 5. Sensor kit: Biotin CAPture Kit (BR28-9202-34, GE Healthcare Life Sciences) • 6. Regeneration buffer: 1 volume of 1 M NaOH and 3 volumes of 8 M guanidine hydrochloride (supplied with CAPture Kit, BR28-9202-34, GE Healthcare Life Sciences)
Experimental Procedure • 1. Capture of CAPreagent: 2 μl/min for 60 seconds. • 2. Immobilization of ligand CypA: Use Fc1 as the reference cell; immobilize CypA at 4 μg/ml using 5 μl/min flowrate on Fc2 (60s), Fc3 (80s) and Fc4 (80s), respectively. • 3. Binding of analytes: Inject WDB compound dilutions sequentially at 50 μl/min for association of 60 seconds. And then let it dissociates in buffer at 50 μl/min for 60 seconds. • 4. Regeneration: 2 injections of regeneration buffer at 30 μl/min for 60 seconds to regenerate the chip surface. • 5. Solvent correction: Run solvent correction at beginning and the end of the run. If run more than 6 compounds, add additional solvent correction every 6 compounds. • 6. Data fitting with built-in Biacore Evaluation Software: Steady-state fitting.

[1] = target: BRAF-GTP-KRAS-G12C complex (Homo sapiens, UniProt P01116+P62937, G12C); assay: KRAS-BRAF complex disruption through competition with CYPA-compound by TR-FRET; details: read-out: BRAF-GTP-KRAS-G12C Disruption; biochemical BRAF-KRAS G12C-GTP disruption assay EC50, with CYPA
Experimental: In this example, TR-FRET was used to measure the compound-facilitated disruption of a KRAS-BRAF complex. A mixture of tagless Cyclophilin A, His6-KRAS G12C-GMP-PNP, and GST-BRAF RAS binding domain was added to a 384-well assay plate containing compounds of the invention and incubated for 3 hours. A mixture of Anti-His Eu-W1024 and anti-GST allophycocyanin was then added and the reaction was incubated for an additional 1.5 hours. TR-FRET signal was read on an EnVision microplate reader (Perkin Elmer, Ex 320 nm, Em 665/615 nm). Compounds that facilitate disruption of a KRAS_BRAF complex were identified as those eliciting a decrease in the TR-FRET ratio relative to DMSO control wells. To determine the presenter-dependence of the compound-mediated KRAS-BRAF complex disruption, Cyclophilin A was left out of the initial incubation (see Table 5). To determine G12C specificity of the compound-mediated KRAS-BRAF complex disruption, wild-type KRAS was used instead of G12C KRAS (see Table 5).
Reagents and Instrument • Tagless CYPA; 519 μM in PBS buffer, pH 7.4 • GST BRAF; 110 μM in PBS buffer, pH 7.4 • His6-KRASG12C-GMP-PNP; 50 μM in PBS buffer, pH 7.4 • His6-KRASWT-GMP-PNP; 40 μM in PBS buffer, pH 7.4 • Anti-His Eu-W1024 (LANCE® Eu-W1024; Perkin Elmer) • Anti-GST allophycocyanin (Anti-GST IgG conjugated to SureLight®-Allophycocyanin; Perkin Elmer; Product Number AD0059G) • Test compounds, 10 mM in 100% DMSO • EnVision (Perkin Elmer) • Combi MultiDrop liquid dispenser with 8-channel small volume cassette • 384-well ProxiPlate (black)
Experimental Protocol • 1. Use Mosquito to dispense 100 nL/well of compounds (varying concentration in […]) into 384-well black ProxiPlate to make assay-ready-plate (ARP). • 2. Make assay buffer containing 25 mM Hepes pH 7.3, 100 mM NaCl, 5 mM MgCl2, 0.05% BSA, and 0.002% Tween-20. • 3. Make PRE-MIX A: delivers final concentrations of 50 nM of His6-KRas G12C-GTP (1-169) and 500 nM of tagless CypA (1-165) in assay buffer. • a. For presenter dependence experiments, omit addition of tagless CypA • b. For G12C/wt specificity experiments, substitute His6-KRas WT-GTP (1-169) for His6-KRas G12C-GTP (1-169) • 4. Use MultiDrop Combi to dispense PRE-MIX A into ARP, 7 μl/well. Incubate 3 hr at room temperature. • 5. Make PRE-MIX B: delivers final concentrations of 10 nM of anti-His Eu-W1024 and 50 nM of anti-GST APC. • 6. Use MultiDrop Combi to dispense PRE-MIX B into ARP, 3 μl/well. Shake briefly on Combi and incubate 1.5 hr at room temperature. • 7. Read on EnVision (Ex: 320 nm; Em1: 615 nm; Em2: 665 nm). • 8. Data is processed using Dotmatics. Curves are fit using a 4-parameter non-linear fit to determine the EC50 value for formation of the ternary complex.

pERK in H358 cells = assay: pERK inhibition in H358 cells; details: read-out: Cellular pERK inhibition, 4 hours treatment
Experimental: H358 cells (5500 cells) derived from a human lung cancer were plated in a 96 well plate in media (100 uL, RPMI with 10% FBS). After 24 hours, cells were treated for 4 hours with compound or DMSO. Cells were washed twice with room temperature TBS (200 uL) and fixed for 20 minutes with 4% paraformaldehyde diluted with TBS (150 uL). Cells were washed four times for five minutes with 0.1% TritonX/TBS (150 uL) to permeabilize the membrane. Cells were incubated with TBS blocking buffer (100 uL) at room temperature for 60 minutes. Primary antibody (Phospho-p44/42 MAPK (Erk1/2) (Thr202/Tyr204) (D13.14.4E) XP® Rabbit mAb #4370, Cell Signaling Technology; 1:200) was added, and the cells were incubated overnight at 4 C. The cells were washed four times for five minutes with 0.1% Tween 20/TBS (150 uL). Secondary antibody (IRDye® 800CW Goat-Anti-Rabbit IgG, Li-Cor Biosciences; 1:1000) and DRAQ5™ (Invitrogen; 1:2000) was added, and the cells were incubated for 1 hour at room temperature. The cells were washed four times for five minutes with 0.1% Tween 20/TBS (150 uL) and scanned using the LICOR (700 and 800 nm).

| SMILES | pKd (cyclophilin A (CYPA)) | pEC50 [1] | pIC50 (pERK in H358 cells) |
| --- | --- | --- | --- |
| C=CC(=O)N1CCC(C(=O)N(C)[C@H](C(=O)N[C@H]2Cc3cc(cc(C(F)F)c3)-c3ccc4c(C#N)cn(c4c3)CC(C)COC(=O)[C@@H]3CCCN(N3)C2=O)C(C)C)C1 (some centres unmarked) | > 5.30 | < 5.30 | < 5.00 |
| C=CC(=O)N1CC[C@H](C(=O)N(C)[C@H](C(=O)N[C@H]2Cc3cc(O)cc(c3)-c3ccc4c(c3)c(cn4C(C)(C)C#N)CC(C)(C)COC(=O)[C@@H]3CCCN(N3)C2=O)[C@@H](C)CC)C1 | > 5.30 | 5.30 to 6.30 | > 6.00 |
| CC#CC(=O)N1CCCC1C(=O)N(C)C(C(=O)NC1Cc2cc(O)cc(c2)-c2ccc3c(C#N)c(C)n(c3c2)CC(C)(C)COC(=O)C2CCCN(N2)C1=O)C(C)C (centres unmarked) | < 4.82 | < 5.30 | < 5.00 |
| CC(C)[C@@H](C(=O)N[C@H]1Cc2cc(O)cc(c2)-c2ccc3c(c2)N(C[C@H](C)COC(=O)[C@@H]2CCCN(N2)C1=O)CC3(C)/C=C/C#N)N(C)C(=O)C1CN(C(=O)CCl)C1 (single isomer, unassigned) [223] | > 5.30 | > 6.30 | 5.00 to 6.00 |
| CC(C)[C@@H](C(=O)N[C@H]1Cc2cc(O)cc(c2)-c2ccc3c(-c4cccc5c4OCO5)cn(c3c2)CC(C)(C)COC(=O)[C@@H]2CCCN(N2)C1=O)N(C)C(=O)C1CN(C(=O)CCl)C1 | < 4.82 | > 6.30 | 5.00 to 6.00 |
| C=CC(=O)N1CC[C@H](C(=O)N(C)[C@H](C(=O)N[C@H]2Cc3cc(O)cc(c3)-c3ccc4c(c3)N(CC(C)(C)COC(=O)[C@@H]3CCCN(N3)C2=O)CC4(C)c2cccnc2)C(C)C)C1 (some centres unmarked) | < 4.82 | 5.30 to 6.30 | < 5.00 |
| C=CC(=O)N1CCC(C(=O)N(C)[C@H](C(=O)N[C@H]2Cc3cc(O)cc(c3)-c3ccc4c(C(C#N)C5CCOCC5)cn(c4c3)CC(C)(C)COC(=O)[C@@H]3CCCN(N3)C2=O)C(C)C)C1 (some centres unmarked) | > 5.30 | 5.30 to 6.30 | 5.00 to 6.00 |
| CC(C)[C@@H](C(=O)N[C@H]1Cc2cc(O)cc(c2)-c2ccc3c(c2)N(CC(C)(C)COC(=O)[C@@H]2CCCN(N2)C1=O)CC31CCOCC1)N(C)C(=O)C1CN(C(=O)CCl)C1 | 4.82 to 5.30 | > 6.30 | > 6.00 |
| CCn1cc2c3cc(ccc31)-c1cc(O)cc(c1)C[C@H](NC(=O)[C@H](C(C)C)N(C)C(=O)C1CN(C(=O)CCl)C1)C(=O)N1CCC[C@H](N1)C(=O)OCC(C)C2 (some centres unmarked) | > 5.30 | > 6.30 | > 6.00 |
| CC(C)[C@@H](C(=O)N[C@H]1Cc2cc(O)cc(c2)-c2ccc3c(c2)N(C[C@H](C)COC(=O)[C@@H]2CCCN(N2)C1=O)CC3(C)/C=C/C#N)N(C)C(=O)C1CN(C(=O)CCl)C1 (single isomer, unassigned) [222] | > 5.30 | > 6.30 | > 6.00 |
| C=CC(=O)N1CC[C@H](C(=O)N(C)[C@H](C(=O)N[C@H]2Cc3cc(O)cc(c3)-c3ccc4c(c3)c(c(C#N)n4CCC#N)CC(C)(C)COC(=O)[C@@H]3CCCN(N3)C2=O)C(C)C)C1 | 4.82 to 5.30 | > 6.30 | 5.00 to 6.00 |
| COc1ccc(C#N)c(-n2cc3c4cc(ccc42)-c2cc(O)cc(c2)C[C@H](NC(=O)[C@H](C(C)C)N(C)C(=O)C2CN(C(=O)[C@@H](C)Cl)C2)C(=O)N2CCC[C@H](N2)C(=O)OCC(C)C3)c1 (some centres unmarked) | > 5.30 | < 5.30 | < 5.00 |

Results, then the compound that gave them:

| pKd (cyclophilin A (CYPA)) | pEC50 [1] | pIC50 (pERK in H358 cells) | SMILES |
| --- | --- | --- | --- |
| > 5.30 | < 5.30 | < 5.00 | CC(C)[C@@H](C(=O)N[C@H]1Cc2cc(O)cc(c2)-c2ccc3c(C(C)(C)C#N)cn(c3c2)CC(C)(C)COC(=O)[C@@H]2CCCN(N2)C1=O)N1CCC2(CN(C(=O)[C@H](C)Cl)C2)C1=O |
| 4.82 to 5.30 | 5.30 to 6.30 | 5.00 to 6.00 | CC(C)[C@@H](C(=O)N[C@H]1Cc2cc(O)cc(c2)-c2ccc3c(C(C)(C)C#N)cn(c3c2)CC(C)(C)COC(=O)[C@@H]2CCCN(N2)C1=O)N(C)C(=O)[C@H]1CCN(C(=O)[C@H](C)Cl)C1 |
| 4.82 to 5.30 | < 5.30 | < 5.00 | C=CC(=O)N1CCCC2(CCN([C@H](C(=O)N[C@H]3Cc4cc(O)cc(c4)-c4ccc5c(C(C)(C)C#N)cn(c5c4)CC(C)(C)COC(=O)[C@@H]4CCCN(N4)C3=O)C(C)C)C2=O)C1 (single isomer, unassigned) [332] |
| < 4.82 | 5.30 to 6.30 | 5.00 to 6.00 | CC(C)[C@@H](C(=O)N[C@H]1Cc2cc(O)cc(c2)-c2ccc3c(C(C)(C)C#N)cn(c3c2)CC(C)(C)COC(=O)[C@@H]2CCCN(N2)C1=O)N(C)C(=O)[C@@H]1CCN(C(=O)[C@H](C)Cl)C1 |
| < 4.82 | > 6.30 | < 5.00 | COCC1COC(=O)[C@@H]2CCCN(N2)C(=O)[C@@H](NC(=O)[C@H](C(C)C)N(C)C(=O)C2CN(C(=O)CCl)C2)Cc2cc(O)cc(c2)-c2ccc3c(C(C)(C)C#N)cn(c3c2)C1 (single isomer, unassigned) |
| > 5.30 | > 6.30 | > 6.00 | CC(C)[C@@H](C(=O)N[C@H]1Cc2cc(O)cc(c2)-c2ccc3c(C(C)(C)C#N)cn(c3c2)CC(C)(C)COC(=O)[C@@H]2CCCN(N2)C1=O)N1CCC2(CCN(C(=O)CCl)CC2)C1=O |
| < 4.82 | > 6.30 | < 5.00 | CC(C)[C@@H](C(=O)N[C@H]1Cc2cc(O)cc(c2F)-c2ccc3c(C(C)(C)C#N)cn(c3c2)CC(C)(C)COC(=O)[C@@H]2CCCN(N2)C1=O)N(C)C(=O)C1CN(C(=O)CCl)C1 |
| 4.82 to 5.30 | – | 5.00 to 6.00 | C=CC(=O)N1CCC2(CCN([C@H](C(=O)N[C@H]3Cc4cc(O)cc(c4)-c4ccc5c(C(C)(C)C#N)cn(c5c4)CC(C)(C)COC(=O)[C@@H]4CCCN(N4)C3=O)C(C)C)C2=O)C1 (some centres unmarked) |

pEC50, pIC50, pKd: −log10 of the molar value.
